scFv variants of Ab-14 (heavy chain) against a SARS-CoV-2 spike peptide

All variants were tested on one target, the spike HR2 peptide PDVDLGDISGINAS (SARS-CoV-2).

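The parent was found by panning a naive human phage display library on the peptide. This is the validation round: designs drawn from the data on random variants, tested in the same kind of assay. Several design methods are mixed in this list. AlphaSeq pools MATa yeast showing the antibodies with MATalpha yeast showing the peptide. Pairs that bind mate more often; barcode pairs of the diploids are counted by sequencing. A regression on co-assayed BCL2-family reference pairs converts the normalised counts of each replicate to an apparent Kd. The assay was run in six technical replicates.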

The variants keep the light chain, the linker and the frameworks of Ab-14 (scFv order VH, a (GGGGS)3 linker, VL).
VH: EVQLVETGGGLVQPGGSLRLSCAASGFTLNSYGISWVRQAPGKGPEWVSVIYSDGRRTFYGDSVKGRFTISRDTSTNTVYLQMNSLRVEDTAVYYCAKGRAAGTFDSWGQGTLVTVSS
VL: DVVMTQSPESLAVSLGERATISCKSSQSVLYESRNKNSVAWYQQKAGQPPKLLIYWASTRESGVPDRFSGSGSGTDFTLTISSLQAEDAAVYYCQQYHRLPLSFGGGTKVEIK

Variants are written as CDR1, CDR2 and CDR3 of the heavy chain (limits as in the source). Parent: GFTLNSYGIS, VIYSDGRRTFYGDSVK, GRAAGTFDS. Variants here have more than six changes. Kd is apparent (estimated from mating counts) and averaged on the log scale over replicates with a signal. Smaller is tighter. "nd" marks a missing value. The strain was present, yet no cells mated with the target were sequenced in any replicate, which points to weak or no binding. Background: pairings of all heavy chain designs with three empty control strains gave a value in 1% of cases (median 120 nM, 5th percentile 7.0 nM). Values in that range, when seen in few replicates, are hard to tell from nonspecific mating. The parent sequence was in this pool as ten entries: three were never detected, three once, and four in most replicates, with averages from 2.2 nM to 240 nM. The authors' rule: three or more of the six replicates give a measured affinity, fewer mean a poor binder. The range of this assay differs from that of the first round, and the authors advise against merging the two.

With GFDVEDYGIS / VIYADGRQQQYAQKFK / GTIAGTFVD the result was nd (0 of 6 replicates). For GFNLEDYGIS / VIYADGRRTFYSDSVK / GKVAGTFDV, the assay gave 240 pM (6 of 6 replicates). With GFDLNEYGIS / VIYADGVRTAYADSVK / GEVAGTFDA the result was 590 pM (6 of 6 replicates). Variant GFDLNEYGIS / VIYADGRRTFYADSVK / GQLAGTFSM gave 230 pM (6 of 6 replicates). Variant GFDLNEYGIS / VIYADGMRKAYADDVK / GNVAGTFDL gave 1.2 nM (6 of 6 replicates). Variant GFDLNEYGIS / VIYADGMRTAYTDSVK / GEAAGTFDL showed 230 pM (6 of 6 replicates). Variant GQDLSEYGIS / VIYADGERRSYANSVK / GNVSGNFSQ gave nd (0 of 6 replicates). Variant GFDLNEYGIS / VIYADGRRTFYTDSVK / GTIAGTFDV gave 330 pM (6 of 6 replicates).

For GFDLNEYGIS / VIYADGMRTAYADDVK / GQNAGTFDL, the assay gave 320 pM (6 of 6 replicates). Variant GQDLAEYGIS / VIYADGKRTYYAQAVK / GTNVGQGDT gave nd (0 of 6 replicates). For GIDMQEYGIS / VIYADGLRAAYSDNFK / GVLGGTFDM, the assay gave 20 nM (4 of 6 replicates). Variant GFDLNEYGIS / VIYADGRRTFYADSVK / GQVAGTFDQ showed 260 pM (6 of 6 replicates). Variant GFDLNEYGIS / VIYADGVRTFYTDSVK / GENAGTFDV gave 370 pM (6 of 6 replicates). For GFDINEYGIS / VIFADGMRTAYLNDVK / GQMAGLFIM, the assay gave nd (0 of 6 replicates). With GFDLDEYGIS / VIYADGMRTAYSDSVK / GNLAGTFDV the result was 370 pM (6 of 6 replicates). Variant GFDLNEYGIS / VIYADGQRTAYADSVK / GKAAGTFDL showed 210 pM (6 of 6 replicates).

Variant GFDLNEYGIS / VIYADGKRTKYTDNVK / GTLTGTAVT gave nd (0 of 6 replicates). Variant GADLQEYGIS / VIYADGNRYAYTNSVK / GTQGGSLIV gave nd (0 of 6 replicates). With GFDLNEYGIS / VIYADGMRTAYTDSVK / GNNAGTFDQ the result was nd (0 of 6 replicates). Variant GMSLGEYGIS / VIYADGERVAYTNNFK / GVMAGTGDV gave nd (0 of 6 replicates). Variant GFDLNEYGIS / VIYADGRRTAYADSVK / GEIAGTFFF gave nd (0 of 6 replicates). Variant GFDLNEYGIS / VIYADGHRTFYSDSVK / GQLAGTFDA showed 190 pM (6 of 6 replicates). Variant GFDLDEYGVS / VIYADGRRKKYADSVK / GTHGGTILA showed 320 nM (1 of 6 replicates). Variant GFDLDEYGIS / VIYADGMRTAYADSVK / GENAGTFDM showed 72 nM (6 of 6 replicates).

For GFTLDEYGIS / VIYADGRRTFYSDSVK / GETAGTFDV, the assay gave 330 pM (6 of 6 replicates). For GFDLNEYGIS / VIYADGRRTFYADSVK / GNVAGTFDV, the assay gave 260 pM (6 of 6 replicates). Variant GFDLNEYGIS / VIYADGVRTAYSDSVK / GNEAGTFDM gave 150 pM (6 of 6 replicates). Variant GFDLEDYGIS / VIYADGRRTAYADSVK / GNVAGTFDL showed 600 pM (6 of 6 replicates). For GFEIQEYGIS / VIYADGRRTAYAENVK / GTLGGTFDT, the assay gave 530 pM (6 of 6 replicates). For GDDLAEYGVS / VIYADGKRTKYSDHVK / GENGGFFDL, the assay gave nd (0 of 6 replicates). Variant AFTLDSYGHG / VIYSDGRATFYGDSVK / GRAAGTALS gave nd (0 of 6 replicates). With GMDLNEYGIS / VIYADGRRTAYINQVK / GKQSMIVSH the result was nd (0 of 6 replicates).

With GFDFQEYGIS / VIYADGQRSNYSDSVK / GNIGAIFDD the result was nd (0 of 6 replicates). Variant GFNLDEYGIS / VIYADGRRVAYANNVK / GKNGMFFSN gave 1.1 µM (1 of 6 replicates). Variant GDGLQEYGIS / VIYADGFRTSYANDVK / GTAAGGFMV showed nd (0 of 6 replicates). Variant GFDLNEYGIS / VIYADGMRTAYSDNVK / GQVAGTFDL gave 400 pM (6 of 6 replicates). For GFDLNEYGIS / VIYADGKRTFYSDSVK / GTTGGTFDM, the assay gave 450 pM (6 of 6 replicates). With GKDINEYGVS / VIYADGKRNAYINKVK / GKNAGAFVD the result was nd (0 of 6 replicates). Variant GFDLNEYGIS / VIYADGMRTFYADKAK / GNAGIVAEV gave nd (0 of 6 replicates). Variant GFDLDEYGIS / VIYADGQRTVYADSVK / GNVAGTFDL showed 710 pM (6 of 6 replicates).

With GFDLDEYGIS / VIYADGARKAVQNQFK / GGQAGTFVN the result was 170 nM (1 of 6 replicates). For GFDLDEYGIS / VIYADGMRTYYADSVK / GETAGTFDV, the assay gave 380 pM (6 of 6 replicates). Variant GFQLNEYGIS / VIYADGRRTFYADSVK / GNQAGTFDQ showed 630 pM (6 of 6 replicates). Variant GFDLEEYGIS / VIYADGRRTFYSDSVK / GEAAGTFDQ gave 920 pM (6 of 6 replicates). Variant GFDLNEYGIS / VIYADGMRVSYTNTVK / GQNSMISAT showed nd (0 of 6 replicates). With GFNLDEYGIS / VIYADGQRTQYANDVK / GGYAGSMLS the result was nd (0 of 6 replicates). With GFDLNEYGIS / VIYADGMRTAYADDVK / GSNAGTFDI the result was 150 pM (6 of 6 replicates). Variant GFDLNEYGIS / VIYADGRRTFYSDSVK / GANGGTFDM showed 200 pM (6 of 6 replicates).

Variant GFDLDEYGIS / VIYADGMRTAYSDKVK / GNQAGTFDV gave 460 pM (6 of 6 replicates). Variant GFDLNEYGIS / VIYADGMRTAYADNVK / GNQAGTFDI showed 4.0 nM (6 of 6 replicates).

The opening 4 entries, copied out:

CDR-H1	CDR-H2	CDR-H3	Kd (apparent)	replicates with signal
GFDVEDYGIS	VIYADGRQQQYAQKFK	GTIAGTFVD	nd	0 of 6
GFNLEDYGIS	VIYADGRRTFYSDSVK	GKVAGTFDV	240 pM	6 of 6
GFDLNEYGIS	VIYADGVRTAYADSVK	GEVAGTFDA	590 pM	6 of 6
GFDLNEYGIS	VIYADGRRTFYADSVK	GQLAGTFSM	230 pM	6 of 6

Source: Li et al. 2023 (doi:10.1038/s41467-023-39022-2), MIT Lincoln Laboratory and A-Alpha Bio; data file from the FLAb repository.